This passage reports MIC results from ChEMBL document CHEMBL1130191 (J Med Chem, 1997).

For this experiment, the system named is DNA topoisomerase I (Bos taurus). Put plainly: Inhibition of calf thymus Topoisomerase-I.

Consider `CO[C@H]1[C@H](O)[C@@H](O)[C@H](n2c3c(Cl)cccc3c3c4c(c5c6cccc(Cl)c6[nH]c5c32)C(=O)N(C)C4=O)O[C@@H]1CO`, for which the MIC is > 17 µM.
